Here are results for one substance from publication PMC7607171, “Optimized low‐dose combinatorial drug treatment boosts selectivity and efficacy of colorectal carcinoma treatment” (Molecular Oncology, 2020).

A short description of data set [1]: Clinical plasma pharmacokinetics in patients, plasma concentration limit calculation. Format: in vivo. To be noted: average plasma concentration calculated from AUC0-24h in patients. How it is done:
To select for clinically relevant doses, the clinically attainable drug concentration measured in the blood plasma of patients after treatment is used to calculate the concentration limit for in vitro experiments. […] The average drug concentration is calculated from the AUC0–24h and is implemented as the plasma concentration limit (PCL) which drug dose selection must remain below for in vitro experiments. If a drug is FDA approved, the AUC0–24h selected is the one corresponding to the recommended dose in clinical practice. If a drug is in clinical trials, the AUC0–24h selected is the one corresponding to the maximum tolerated dose in early stage clinical trials. Note, experiments were conducted with the most current PCL calculated from the AUC0–24h information available at the start of experiments (December 2017), see Table S4.

The conditions of data set [2]: 0-12h; 120 mg/kg twice daily, oral; cited from earlier work.

Several values for one entry are separate records, joined by “and”; a condition that tells them apart may be missing. Equal values may be shown once.

AZD-4547: in data set [1], the “PCL (plasma concentration limit)” value is 0.37 µM and 0.4 µM. Besides, the AUC in data set [2] is 2058(0-12h) µg*h/L [24].
